# Measurements from PMC7723054.
# This is one part of the list.
# T1: LIN28A (human?, UniProt Q9H9Z2 1-209)
# T1 sequence: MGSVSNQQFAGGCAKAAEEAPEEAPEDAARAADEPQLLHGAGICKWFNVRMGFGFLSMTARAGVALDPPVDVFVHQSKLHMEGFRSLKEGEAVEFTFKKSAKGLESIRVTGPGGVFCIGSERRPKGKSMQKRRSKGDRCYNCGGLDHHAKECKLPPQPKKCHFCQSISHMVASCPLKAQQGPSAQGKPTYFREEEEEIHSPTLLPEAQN
# T2: CIRBP (Homo sapiens, UniProt Q14011 1-172)
# T2 sequence: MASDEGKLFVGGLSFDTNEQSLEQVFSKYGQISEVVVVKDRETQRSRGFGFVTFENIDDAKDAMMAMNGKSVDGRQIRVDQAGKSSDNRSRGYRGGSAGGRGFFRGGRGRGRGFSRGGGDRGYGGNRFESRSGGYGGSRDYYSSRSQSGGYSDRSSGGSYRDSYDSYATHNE
# T3: DHX36 (Homo sapiens, UniProt Q9H2U1 1-1008)
# T3 sequence: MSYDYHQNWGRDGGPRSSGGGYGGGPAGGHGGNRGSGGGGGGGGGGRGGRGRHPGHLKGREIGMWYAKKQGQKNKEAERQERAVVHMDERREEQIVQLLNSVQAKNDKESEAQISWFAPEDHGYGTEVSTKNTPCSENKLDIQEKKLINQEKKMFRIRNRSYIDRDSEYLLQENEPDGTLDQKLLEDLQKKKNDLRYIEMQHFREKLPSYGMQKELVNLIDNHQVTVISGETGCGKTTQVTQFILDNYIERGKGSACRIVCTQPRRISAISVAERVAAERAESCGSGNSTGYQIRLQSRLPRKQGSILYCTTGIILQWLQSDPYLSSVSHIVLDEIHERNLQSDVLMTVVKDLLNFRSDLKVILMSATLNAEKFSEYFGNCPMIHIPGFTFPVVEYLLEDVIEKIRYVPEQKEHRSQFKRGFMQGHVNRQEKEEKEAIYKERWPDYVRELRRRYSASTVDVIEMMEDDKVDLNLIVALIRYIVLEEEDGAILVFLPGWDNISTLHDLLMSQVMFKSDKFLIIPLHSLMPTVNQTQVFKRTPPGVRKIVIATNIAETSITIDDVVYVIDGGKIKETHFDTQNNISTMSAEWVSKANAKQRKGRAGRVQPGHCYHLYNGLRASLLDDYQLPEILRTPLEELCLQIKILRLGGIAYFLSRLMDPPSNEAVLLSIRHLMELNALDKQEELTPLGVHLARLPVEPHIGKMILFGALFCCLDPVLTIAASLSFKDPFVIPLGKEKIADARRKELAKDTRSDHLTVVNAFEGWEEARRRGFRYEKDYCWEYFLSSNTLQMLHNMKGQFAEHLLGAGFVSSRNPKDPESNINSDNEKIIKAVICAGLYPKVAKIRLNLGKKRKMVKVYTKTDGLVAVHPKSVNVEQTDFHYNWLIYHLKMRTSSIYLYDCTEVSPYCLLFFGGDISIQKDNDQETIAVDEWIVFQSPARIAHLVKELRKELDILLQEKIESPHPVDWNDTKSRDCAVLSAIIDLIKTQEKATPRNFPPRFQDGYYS
# B1: hsa-mir-4789 (structured_RNA)
# RNA: GGGAAUAGUCUUGAAUGCUGGCCCGAAAGGUGUACGAAGUUUCAGCUGUAUGUGUAAAUACAUAUCCACACAGCUGAAGCUUCGUGCAC
# B2: hsa-mir-3190 (structured_RNA)
# RNA: GGGAAACUGUAGAACGAGUUAAACCGCUGGUGUACGAAGUUUCAGCCCCACGGCCCUUGUCAGUGUGGCUGAAGCUUCGUGCAC
# B3: hsa-mir-153-1 (structured_RNA)
# RNA: GGGAAAGGGGCUCACCAAUUCACGCAAUGGUGUACGAAGUUUCAGCGCAGCUAGUAUUCUCACUCCAGUUGCGCUGAAGCUUCGUGCAC
# B4: hsa-mir-1294 (structured_RNA)
# RNA: GGGCACACACCAAUAGGGGUACAGCAACGGUGUACGAAGUUUCAGCGUCUGGCAUUGUCUGAUAUACGCUGAAGCUUCGUGCAC
# B5: PARIS_ID8 (structured_RNA)
# RNA: GGGAAAUAUCCAGACGGCACGACACACGGGUGUACGAAGUUUCAGCGGGCUGUGGAGUGUAUGAAUUUAUAAAUCACUGGUCUGCUGAAGCUUCGUGCAC
# B6: hsa-mir-373 (structured_RNA)
# RNA: GGGACCGUCUAAGUCCGCAAUGUCCGAGGGUGUACGAAGUUUCAGCCUUUCCUUUUUGUCUGUACUGGGAAGGCUGAAGCUUCGUGCAC
# B7: hsa-mir-8485 (structured_RNA)
# RNA: GGGAAGCUUUUCGAAACUUGGAUGUGGCGGUGUACGAAGUUUCAGCUGUAUAUAGCAUAUGUGUAUACAUACACACACACACACACACACACACAGCUGAAGCUUCGUGCAC
# B8: hsa-mir-3181 (structured_RNA)
# RNA: GGGAAGUCAGGGAUUAUAUCGAAAGCACGGUGUACGAAGUUUCAGCCCGGCCCGUUAGUUGCCCGGGCCCGGCUGAAGCUUCGUGCAC
# B9: hsa-mir-6810 (structured_RNA)
# RNA: GGGAAACCAUGCACUAGAUCAUAGGACUGGUGUACGAAGUUUCAGCUGGCACAGAUCCAAUACCUUCUGUCCCCGCUGAAGCUUCGUGCAC
# B10: hsa-mir-3140 (structured_RNA)
# RNA: GGGCCACGGACAAAACAGAGCCUCAGUCGGUGUACGAAGUUUCAGCAGCUUUAUGUAUUCUGAAGUUAUUGAAAAUAAGAGCUGCUGAAGCUUCGUGCAC
# B11: hsa-mir-3689f (structured_RNA)
# RNA: GGGAAGGGAACUCACAAUCUGUACGAAUGGUGUACGAAGUUUCAGCGGGACGUGUGAUGCUGUGCUUCCUGCUGAAGCUUCGUGCAC
# B12: hsa-mir-548o (structured_RNA)
# RNA: GGGAAGGGCUGGCAUCCAACGGAAUUACGGUGUACGAAGUUUCAGCAUGGUUCCUAUUCUGAUCAAUAAACAUGGUUUGAGCCUAGUUACAAUGAUCUAAAAUUCACGGUCCAAGCUGAAGCUUCGUGCAC
# Biological target: U1A (Homo sapiens, UniProt P09012)
# Assay: FOREST: bead pull-down of RNA structure library v1, barcode microarray; U1A/LIN28A: 20 mM HEPES pH 7.5, 80 mM KCl, 20 mM NaCl, 10% glycerol, 2 mM DTT, 0.1 ug/uL BSA, 4 C; BG4/CIRBP/DHX36: 10 mM Tris-HCl pH 7.5, 100 mM KCl (or LiCl),; high values mean tight binding
row,Binder,binding signal [z-score]
1,B1,0.891
2,B2,0.886
3,B3,0.885
4,B4,0.885
5,B5,0.881
6,B6,0.876
7,B7,2.39
8,B8,0.874
9,B9,0.873
10,B10,0.869
11,B11,0.867
12,B12,0.865

# Biological target: T1, LIN28A
# Assay: as above
row,Binder,binding signal [z-score]
1,B1,0.293
2,B2,-0.0294
3,B3,-1.77
4,B4,-0.397
5,B5,0.07
6,B6,0.64
7,B7,1.09
8,B8,0.801
9,B9,0.242
10,B10,0.953
11,B11,0.773
12,B12,0.613

# Biological target: T2, CIRBP
# Assay: as above
row,Binder,binding signal [z-score]
1,B1,0.325
2,B2,-0.912
3,B3,-0.056
4,B4,-0.877
5,B5,-0.218
6,B6,0.0694
7,B7,0.263
8,B8,0.825
9,B9,0.431
10,B10,0.577
11,B11,1.13
12,B12,0.582

# Biological target: T3, DHX36
# Assay: as above
row,Binder,binding signal [z-score]
1,B1,-0.516
2,B2,-0.176
3,B3,-0.759
4,B4,0.14
5,B5,-0.628
6,B6,0.075
7,B7,1.18
8,B8,0.485
9,B9,-0.239
10,B10,0.44
11,B11,0.883
12,B12,0.855
